Chains of the proteins cited; added tags and fusions are not shown. Lines headed by an entry give the natural chain unless they say otherwise; changes in a name come on top.
UniProt P22002: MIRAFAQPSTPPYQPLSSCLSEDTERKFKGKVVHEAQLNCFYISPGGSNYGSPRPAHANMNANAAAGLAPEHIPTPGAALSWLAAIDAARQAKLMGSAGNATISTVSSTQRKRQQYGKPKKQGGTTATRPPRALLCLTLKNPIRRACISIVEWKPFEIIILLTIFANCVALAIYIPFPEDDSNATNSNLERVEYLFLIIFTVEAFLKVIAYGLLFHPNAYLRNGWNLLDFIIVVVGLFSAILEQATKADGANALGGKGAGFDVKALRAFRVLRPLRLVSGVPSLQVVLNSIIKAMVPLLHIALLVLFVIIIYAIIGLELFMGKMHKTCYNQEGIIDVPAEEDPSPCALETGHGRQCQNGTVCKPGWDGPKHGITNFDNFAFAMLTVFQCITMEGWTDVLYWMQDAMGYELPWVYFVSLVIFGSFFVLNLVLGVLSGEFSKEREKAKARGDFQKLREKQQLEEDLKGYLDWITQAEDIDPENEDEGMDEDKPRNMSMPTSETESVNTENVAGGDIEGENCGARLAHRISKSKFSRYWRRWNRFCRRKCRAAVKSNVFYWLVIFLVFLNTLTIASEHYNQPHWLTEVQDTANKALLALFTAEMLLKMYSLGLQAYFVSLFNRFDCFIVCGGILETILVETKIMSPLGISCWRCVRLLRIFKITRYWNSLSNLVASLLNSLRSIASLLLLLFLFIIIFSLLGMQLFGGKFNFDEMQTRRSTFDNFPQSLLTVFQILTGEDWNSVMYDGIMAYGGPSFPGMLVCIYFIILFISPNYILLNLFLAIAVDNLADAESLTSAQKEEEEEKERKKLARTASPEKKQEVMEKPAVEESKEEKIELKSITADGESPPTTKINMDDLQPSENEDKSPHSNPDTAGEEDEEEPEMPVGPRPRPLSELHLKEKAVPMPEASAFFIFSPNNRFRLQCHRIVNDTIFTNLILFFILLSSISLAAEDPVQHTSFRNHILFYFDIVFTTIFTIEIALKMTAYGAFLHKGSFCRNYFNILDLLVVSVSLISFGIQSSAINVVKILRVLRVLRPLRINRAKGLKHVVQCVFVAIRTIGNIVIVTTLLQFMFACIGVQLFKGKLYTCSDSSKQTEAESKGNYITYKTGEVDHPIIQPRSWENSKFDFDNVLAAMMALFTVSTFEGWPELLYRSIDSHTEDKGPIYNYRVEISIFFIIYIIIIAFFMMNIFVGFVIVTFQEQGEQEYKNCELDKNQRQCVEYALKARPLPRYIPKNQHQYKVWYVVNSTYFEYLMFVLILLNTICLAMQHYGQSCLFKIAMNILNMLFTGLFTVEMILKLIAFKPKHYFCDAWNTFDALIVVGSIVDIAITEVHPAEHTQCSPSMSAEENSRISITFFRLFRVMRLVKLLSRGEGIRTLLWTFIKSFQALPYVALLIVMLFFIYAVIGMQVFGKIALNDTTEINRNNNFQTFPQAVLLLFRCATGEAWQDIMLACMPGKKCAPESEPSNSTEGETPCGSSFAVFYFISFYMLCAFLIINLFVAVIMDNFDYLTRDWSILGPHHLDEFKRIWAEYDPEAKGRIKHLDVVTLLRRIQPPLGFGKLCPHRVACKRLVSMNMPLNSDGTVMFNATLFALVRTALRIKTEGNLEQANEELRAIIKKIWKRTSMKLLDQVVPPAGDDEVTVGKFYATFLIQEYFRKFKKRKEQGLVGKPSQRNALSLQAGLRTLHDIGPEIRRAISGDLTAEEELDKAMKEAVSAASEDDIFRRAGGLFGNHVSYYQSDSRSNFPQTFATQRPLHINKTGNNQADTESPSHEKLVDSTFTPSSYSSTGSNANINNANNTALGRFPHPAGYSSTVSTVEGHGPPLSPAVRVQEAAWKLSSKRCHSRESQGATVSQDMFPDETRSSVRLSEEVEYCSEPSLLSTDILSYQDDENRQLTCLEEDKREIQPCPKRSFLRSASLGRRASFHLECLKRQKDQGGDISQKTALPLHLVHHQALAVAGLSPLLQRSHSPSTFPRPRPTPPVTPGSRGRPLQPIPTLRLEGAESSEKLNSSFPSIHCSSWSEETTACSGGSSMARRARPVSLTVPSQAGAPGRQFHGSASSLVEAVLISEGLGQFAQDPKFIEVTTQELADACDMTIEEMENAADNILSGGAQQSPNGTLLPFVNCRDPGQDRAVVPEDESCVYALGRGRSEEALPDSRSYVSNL
UniProt Q02485: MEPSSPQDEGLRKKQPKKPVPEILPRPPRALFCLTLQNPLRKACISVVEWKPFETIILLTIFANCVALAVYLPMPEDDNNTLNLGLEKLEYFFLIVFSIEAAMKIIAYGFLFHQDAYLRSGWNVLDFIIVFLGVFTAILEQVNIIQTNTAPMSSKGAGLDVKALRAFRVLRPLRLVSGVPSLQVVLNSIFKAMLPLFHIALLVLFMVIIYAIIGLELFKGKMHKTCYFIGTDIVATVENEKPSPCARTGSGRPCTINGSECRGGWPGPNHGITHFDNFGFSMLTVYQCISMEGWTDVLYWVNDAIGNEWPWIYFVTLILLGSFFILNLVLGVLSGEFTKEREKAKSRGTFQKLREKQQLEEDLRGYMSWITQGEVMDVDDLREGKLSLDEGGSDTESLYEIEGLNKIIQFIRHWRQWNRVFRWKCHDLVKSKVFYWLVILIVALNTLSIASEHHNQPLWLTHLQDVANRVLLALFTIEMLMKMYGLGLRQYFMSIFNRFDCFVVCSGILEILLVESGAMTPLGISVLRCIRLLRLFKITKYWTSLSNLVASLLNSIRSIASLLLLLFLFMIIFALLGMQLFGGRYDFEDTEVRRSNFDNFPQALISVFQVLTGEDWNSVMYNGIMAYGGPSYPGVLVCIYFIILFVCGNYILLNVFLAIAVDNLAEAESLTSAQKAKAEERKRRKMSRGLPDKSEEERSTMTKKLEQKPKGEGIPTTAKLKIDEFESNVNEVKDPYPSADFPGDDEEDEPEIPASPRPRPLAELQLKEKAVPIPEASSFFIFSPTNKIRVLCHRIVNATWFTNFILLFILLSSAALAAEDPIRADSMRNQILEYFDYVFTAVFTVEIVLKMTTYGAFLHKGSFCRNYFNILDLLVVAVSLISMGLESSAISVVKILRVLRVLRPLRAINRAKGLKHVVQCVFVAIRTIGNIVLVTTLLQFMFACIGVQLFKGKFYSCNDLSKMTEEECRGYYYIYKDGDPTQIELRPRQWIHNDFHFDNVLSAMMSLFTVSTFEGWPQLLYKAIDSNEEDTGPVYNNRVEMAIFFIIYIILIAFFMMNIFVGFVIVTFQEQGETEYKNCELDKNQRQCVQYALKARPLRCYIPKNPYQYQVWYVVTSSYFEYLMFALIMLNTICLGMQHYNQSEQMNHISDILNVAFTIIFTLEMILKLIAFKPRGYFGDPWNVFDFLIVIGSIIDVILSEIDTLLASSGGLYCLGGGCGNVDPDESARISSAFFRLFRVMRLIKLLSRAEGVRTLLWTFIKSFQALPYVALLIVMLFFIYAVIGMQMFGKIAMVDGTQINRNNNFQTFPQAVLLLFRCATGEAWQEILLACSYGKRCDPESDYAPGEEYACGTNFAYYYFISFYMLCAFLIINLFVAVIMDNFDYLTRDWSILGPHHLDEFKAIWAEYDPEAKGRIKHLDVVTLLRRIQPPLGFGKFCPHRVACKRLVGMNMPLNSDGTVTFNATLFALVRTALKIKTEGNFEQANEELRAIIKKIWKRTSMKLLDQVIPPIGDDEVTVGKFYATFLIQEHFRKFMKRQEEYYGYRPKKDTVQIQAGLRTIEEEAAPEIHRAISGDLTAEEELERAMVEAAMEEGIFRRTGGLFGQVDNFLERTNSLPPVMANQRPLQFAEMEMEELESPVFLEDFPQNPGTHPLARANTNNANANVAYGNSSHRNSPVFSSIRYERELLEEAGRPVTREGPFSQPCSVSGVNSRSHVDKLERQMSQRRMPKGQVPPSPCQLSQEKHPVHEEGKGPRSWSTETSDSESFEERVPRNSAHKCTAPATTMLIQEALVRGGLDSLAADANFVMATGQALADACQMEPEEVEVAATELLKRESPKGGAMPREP
UniProt P27732: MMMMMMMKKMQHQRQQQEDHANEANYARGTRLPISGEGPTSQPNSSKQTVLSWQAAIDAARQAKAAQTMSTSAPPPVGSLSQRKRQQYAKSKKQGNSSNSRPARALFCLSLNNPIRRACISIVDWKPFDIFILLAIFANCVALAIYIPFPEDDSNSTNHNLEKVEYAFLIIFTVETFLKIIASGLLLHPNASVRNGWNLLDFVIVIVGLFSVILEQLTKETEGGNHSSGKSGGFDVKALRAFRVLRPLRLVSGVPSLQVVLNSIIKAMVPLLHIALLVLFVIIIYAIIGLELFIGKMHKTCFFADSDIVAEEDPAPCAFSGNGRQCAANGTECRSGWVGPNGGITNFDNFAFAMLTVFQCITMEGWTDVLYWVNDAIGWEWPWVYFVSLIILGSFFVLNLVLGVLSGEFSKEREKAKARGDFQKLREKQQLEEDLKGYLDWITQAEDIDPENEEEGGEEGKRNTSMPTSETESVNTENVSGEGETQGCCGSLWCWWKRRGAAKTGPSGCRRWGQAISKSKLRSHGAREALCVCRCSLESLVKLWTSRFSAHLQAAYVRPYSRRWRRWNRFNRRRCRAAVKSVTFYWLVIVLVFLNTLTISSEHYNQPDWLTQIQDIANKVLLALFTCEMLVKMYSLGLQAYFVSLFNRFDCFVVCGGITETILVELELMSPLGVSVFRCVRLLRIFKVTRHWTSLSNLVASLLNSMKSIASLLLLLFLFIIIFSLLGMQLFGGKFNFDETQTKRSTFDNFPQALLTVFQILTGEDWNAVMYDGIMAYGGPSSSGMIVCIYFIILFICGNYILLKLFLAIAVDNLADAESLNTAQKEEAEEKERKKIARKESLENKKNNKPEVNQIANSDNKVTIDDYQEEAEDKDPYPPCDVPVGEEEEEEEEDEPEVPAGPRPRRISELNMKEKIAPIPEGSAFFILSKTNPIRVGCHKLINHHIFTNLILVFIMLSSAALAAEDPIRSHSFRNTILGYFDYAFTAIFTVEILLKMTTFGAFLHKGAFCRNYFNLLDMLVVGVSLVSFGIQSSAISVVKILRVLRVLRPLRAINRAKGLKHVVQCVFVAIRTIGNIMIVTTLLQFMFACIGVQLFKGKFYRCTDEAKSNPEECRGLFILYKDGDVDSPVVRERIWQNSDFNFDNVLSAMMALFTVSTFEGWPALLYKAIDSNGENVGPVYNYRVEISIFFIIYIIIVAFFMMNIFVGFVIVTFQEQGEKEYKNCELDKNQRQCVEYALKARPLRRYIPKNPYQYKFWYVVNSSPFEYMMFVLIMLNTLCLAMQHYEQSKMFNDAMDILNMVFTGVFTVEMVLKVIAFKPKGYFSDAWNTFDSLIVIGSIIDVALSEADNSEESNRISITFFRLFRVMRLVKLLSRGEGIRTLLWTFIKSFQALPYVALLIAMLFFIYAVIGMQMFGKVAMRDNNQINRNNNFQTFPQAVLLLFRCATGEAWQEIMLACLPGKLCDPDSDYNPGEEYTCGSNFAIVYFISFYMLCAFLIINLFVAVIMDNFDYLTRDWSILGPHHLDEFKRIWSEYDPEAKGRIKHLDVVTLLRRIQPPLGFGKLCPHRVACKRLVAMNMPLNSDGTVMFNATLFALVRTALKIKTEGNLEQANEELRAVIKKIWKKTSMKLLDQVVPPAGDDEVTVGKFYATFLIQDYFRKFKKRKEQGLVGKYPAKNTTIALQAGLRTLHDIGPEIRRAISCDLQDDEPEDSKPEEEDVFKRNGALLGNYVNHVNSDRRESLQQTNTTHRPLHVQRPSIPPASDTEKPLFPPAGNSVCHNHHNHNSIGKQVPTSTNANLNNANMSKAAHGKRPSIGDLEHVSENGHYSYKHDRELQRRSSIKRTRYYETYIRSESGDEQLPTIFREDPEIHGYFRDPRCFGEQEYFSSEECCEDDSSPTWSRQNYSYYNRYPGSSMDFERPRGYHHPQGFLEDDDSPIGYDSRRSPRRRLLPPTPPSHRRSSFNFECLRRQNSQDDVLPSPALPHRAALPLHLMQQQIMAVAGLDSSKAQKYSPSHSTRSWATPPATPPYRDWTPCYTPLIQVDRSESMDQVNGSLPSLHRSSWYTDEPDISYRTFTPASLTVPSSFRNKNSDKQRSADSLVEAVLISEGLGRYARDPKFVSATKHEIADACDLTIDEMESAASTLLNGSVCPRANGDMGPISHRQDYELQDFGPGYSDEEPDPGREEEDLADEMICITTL

In ChEMBL document CHEMBL1128349 (J Med Chem, 1995):

Biological target: Voltage-gated L-type calcium channel (Rattus norvegicus, UniProt P22002+Q02485+P27732)
Test: Displacement of [3H]nitrendipine from rat brain L-type [Ca2+] channel
Assay type: tissue-based

| SMILES | Ki |
| --- | --- |
| COC(=O)C1=C(C)NC(C)=C(C(=O)OCCCN2CCC(c3ccccc3)(c3ccccc3)CC2)[C@@H]1c1cccc([N+](=O)[O-])c1 [DEXNIGULDIPINE] | 92 nM |
| COC(=O)C1=C(C)NC(C)=C(C(=O)OCCCN2CCC(c3ccccc3)(c3ccccc3)CC2)[C@H]1c1cccc([N+](=O)[O-])c1 [NIGULDIPINE] | 4.6 nM |
